Test results published in patent US8835467B2, “SIR2 regulation” (Albert Einstein College of Medicine of Yeshiva University, priority 2003, dated 2014).

Test system: T1, NC(=O)c1cccnc1
T1 construct: made in house
Assay: purified protein, by the assay type
Type: biochemical, Saccharomyces cerevisiae
Details: other: yeast enzyme; saturating NAD+ and peptide; pH 7.8

“Yeast SIR2p (Saccharomyces cerevisiae S288C)” was tested, and the Km was 160 µM.
